Test: Table Lamp Light Exposure Test (TLE), discoloration
Type: physicochemical
Conditions: gel with glycerol 10%, clay 4%, silver 0.054% weight; for Gel color after continuous light exposure: Fresh: 60 W table lamp at 1 to 1.5 feet; for Gel color after continuous light exposure: After 24 h: 60 W table lamp

Substance	Gel color after continuous light exposure: Fresh	Gel color after continuous light exposure: After 24 h
Silver Sulfo-succinate	Brown after 0.5 h	Brown black
Silver Salicylate	Brown after 0.5 h	–
Silver Mono-succinate	–	Brown black
